Reference: patent US12533378B2, “Treatment of adverse effects caused by atypical antipsychotics” (SHENZHEN PROFOUND VIEW PHARMACEUTICAL TECHNOLOGY CO., LTD., priority 2020, dated 2026)
“And” between values parts separate entries of the source, which are not always exact repeats. Equal entries are not always repeated. Where two headings read alike, the source gives them in different places.

Legend:
[1] = tested on: female Sprague Dawley rats; conditions: olanzapine model control group, 1 mg/kg tid oral, 21 days; mean±SEM
[2] = tested on: female Sprague Dawley rats; conditions: olanzapine model control group, olanzapine 1 mg/kg tid oral + saline ip, 21 days; mean±SEM
[3] = tested on: female Sprague Dawley rats; conditions: olanzapine model control group

SMILES: Cc1cc2c(s1)Nc1ccccc1N=C2N1CCN(C)CC1 [OLZ, 2-methyl-4-(4-methyl-1-piperazinyl)-10H-thieno[2,3-b][1,5]benzodiazepine]
- Liver weight [1]: 8.76 ± 0.28 g
- Mesenteric fat weight [1]: 2.45 ± 0.11 g
- Body weight, BWG (body weight gain) [2]: 50.46 ± 3.52 g
- Body weight, FBW (final body weight) [2]: 298.33 ± 4.97 g
- Blood glucose level ([3]; 30 minutes after ip glucose 1 g/kg): 9.16 ± 0.48 mmol/L
- Blood glucose level ([3]; 60 minutes after ip glucose 1 g/kg): 6.79 ± 0.32 mmol/L
- Blood glucose level ([3]; 120 minutes after ip glucose 1 g/kg): 6.79 ± 0.32 mmol/L and 6.30 ± 0.33 mmol/L
- Area under the blood glucose curve (AUG) [3]: 845.07 ± 37.88 mmol/min
